The target in the experiment is Metabotropic glutamate receptor 5 (Rattus norvegicus, UniProt P31424). As to the kind of experiment: Displacement of [3H]-MPEP from rat mGluR5. For orientation: In a radioligand displacement assay an active substance lowers the binding of a labelled ligand.

Amino acid sequences for entries named in this document (tags omitted).
UniProt P31424, whole entry: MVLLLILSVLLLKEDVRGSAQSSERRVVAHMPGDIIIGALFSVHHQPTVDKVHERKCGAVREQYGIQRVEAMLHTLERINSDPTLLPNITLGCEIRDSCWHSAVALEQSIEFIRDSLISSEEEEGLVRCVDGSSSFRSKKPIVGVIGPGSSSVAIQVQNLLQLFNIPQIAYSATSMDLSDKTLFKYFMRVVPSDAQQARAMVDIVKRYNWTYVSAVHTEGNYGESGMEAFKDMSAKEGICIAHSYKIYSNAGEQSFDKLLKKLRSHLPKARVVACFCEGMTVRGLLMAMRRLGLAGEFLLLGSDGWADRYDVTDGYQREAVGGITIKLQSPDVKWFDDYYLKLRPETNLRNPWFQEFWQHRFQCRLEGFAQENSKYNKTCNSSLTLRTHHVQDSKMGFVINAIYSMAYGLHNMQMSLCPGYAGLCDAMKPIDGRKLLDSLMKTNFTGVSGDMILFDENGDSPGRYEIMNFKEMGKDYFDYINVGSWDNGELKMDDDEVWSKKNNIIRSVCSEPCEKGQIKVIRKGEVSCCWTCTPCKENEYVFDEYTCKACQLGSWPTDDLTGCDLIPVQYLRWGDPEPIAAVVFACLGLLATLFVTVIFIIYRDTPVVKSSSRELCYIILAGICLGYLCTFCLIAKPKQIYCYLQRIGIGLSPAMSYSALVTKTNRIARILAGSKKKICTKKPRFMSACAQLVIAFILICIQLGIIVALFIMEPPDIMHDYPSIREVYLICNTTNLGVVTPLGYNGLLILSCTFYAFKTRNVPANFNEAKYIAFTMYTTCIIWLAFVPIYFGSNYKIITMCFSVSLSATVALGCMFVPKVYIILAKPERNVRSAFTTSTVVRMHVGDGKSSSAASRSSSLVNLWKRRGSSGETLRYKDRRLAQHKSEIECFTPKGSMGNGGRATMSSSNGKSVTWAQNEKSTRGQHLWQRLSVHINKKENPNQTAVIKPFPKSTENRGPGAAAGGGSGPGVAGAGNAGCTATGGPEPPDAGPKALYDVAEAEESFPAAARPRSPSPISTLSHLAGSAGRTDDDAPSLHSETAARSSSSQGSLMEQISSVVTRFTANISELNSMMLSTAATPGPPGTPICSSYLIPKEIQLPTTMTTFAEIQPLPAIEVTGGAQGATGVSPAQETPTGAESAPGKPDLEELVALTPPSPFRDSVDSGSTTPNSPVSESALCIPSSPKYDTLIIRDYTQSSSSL

Each structure is given as a SMILES string. pKi: −log10 of the molar value.

For the molecule `Cc1cccc(C#Cc2ccccc2)n1`, the pKi was 7.89.

Broadly, the pKi is the negative decadic logarithm of the Ki, by convention in mol/L. The low end stands for a large Ki, the high end for a small Ki.

These data come from ChEMBL document CHEMBL1770108, “Design and synthesis of substituted N-(1,3-diphenyl-1H-pyrazol-5-yl)benzamides as positive allosteric modulators of the metabotropic glutamate receptor subtype 5” (Bioorg Med Chem Lett, 2011).
